Measurements taken from US20190010233A1.

Legend:
[1] = target: full length cyno PD-L1 on cells (cyno) (UniProt G7PSE7); assay: FACS CHO-K1-cPD-L1, 33.33 nM mAb
[2] = target: full length cyno PD-L1 on cells (cyno) (UniProt G7PSE7); assay: FACS CHO-K1-cPD-L1, 0.14 nM mAb
[3] = target: full length cyno PD-L1 on cells (cyno) (UniProt G7PSE7); assay: FACS CHO-K1-cPD-L1, 3.70 nM mAb
[4] = target: hPD-L2 (human) (UniProt Q9BQ51); assay: ELISA, mAb concentration not given
[5] = target: full length cyno PD-L1 on cells (cyno) (UniProt G7PSE7); assay: FACS CHO-K1-cPD-L1, 100.00 nM mAb
[6] = target: full length cyno PD-L1 on cells (cyno) (UniProt G7PSE7); assay: FACS CHO-K1-cPD-L1, 11.11 nM mAb
[7] = target: full length cyno PD-L1 on cells (cyno) (UniProt G7PSE7); assay: FACS CHO-K1-cPD-L1, 0.41 nM mAb

- Mean fluorescence intensity [1]: 91.8
- Mean fluorescence intensity [2]: 37.6
- Mean fluorescence intensity [3]: 108
- OD450 nm [4]: 0.218
- Mean fluorescence intensity [5]: 96.2
- Mean fluorescence intensity [6]: 101
- Mean fluorescence intensity [7]: 71.6
Substance: chimeric anti-PD-L1 antibody 78B2D7
